According to patent US20050176641A1, “Long lasting natriuretic peptide derivatives” (CONJUCHEM, INC., priority 2000, published 2005):

Tested on: NEP enzyme
Test: Stability towards NEP enzyme (RIA detection)
Format: in vitro ADME
Conditions: control, 37° C., up to 48 hours
Method: Stability of conjugates of NP peptides is also tested in a NEP enzyme solution in comparison to the corresponding free NP peptides so as to show protection of the conjugated NP peptides against enzymatic degradation by NEP enzyme specifically. In the examples given below, the corresponding flee NP peptide is human ANP, called “hANP” herein below, which was provided by Phoenix Pharmaceuticals Inc., Belmont, Calif., USA.
Conditions for the analysis of the stability towards NEP enzyme degradation are as follow. The lyophilised enzymes contained in a vial of NEP enzyme (provided by Calbiochem/Novabiochem Corporation, San Diego, Calif., USA, product # 324762) are solubilized with 100 μL of 0.1 M Tris-HCl buffer pH 8.0. It was vortexed and sonnicated to ensure a complete dissolution of the enzymes. One vial contains between 800 and 950 U of enzymes. A solution of conjugates is prepared at 250 μM with 0.1 M Tris-HCl buffer pH 8.0. […]
For the radioimmunoassay, 50 μL of either NP conjugate calibration standards, quality control samples, or diluted test samples in assay buffer (0.05M phosphate buffer, pH 7.5, 0.08% sodium azide, 0.025M EDTA, and 0.1% gelatin) is added to the appropriately labeled 12×75 mm borosilicate glass test tubes. […] The supernatants (bound fractions) are then counted on a gamma counter (Packard Cobra II Auto-Gamma) for at least 2 minutes. […]

Substance: capped HSA: albumin with a cysteine residue bonded to it
- NEP hydrolysis: not (or almost not) subject to NEP hydrolysis
